Measurements published in ChEMBL document CHEMBL5518236, “Discovery of Clinical Candidate AZD5462, a Selective Oral Allosteric RXFP1 Agonist for Treatment of Heart Failure” (J Med Chem, 2024).

Target: T1, Relaxin receptor 1 (Homo sapiens) (UniProt Q9HBX9)
T1 sequence (whole entry): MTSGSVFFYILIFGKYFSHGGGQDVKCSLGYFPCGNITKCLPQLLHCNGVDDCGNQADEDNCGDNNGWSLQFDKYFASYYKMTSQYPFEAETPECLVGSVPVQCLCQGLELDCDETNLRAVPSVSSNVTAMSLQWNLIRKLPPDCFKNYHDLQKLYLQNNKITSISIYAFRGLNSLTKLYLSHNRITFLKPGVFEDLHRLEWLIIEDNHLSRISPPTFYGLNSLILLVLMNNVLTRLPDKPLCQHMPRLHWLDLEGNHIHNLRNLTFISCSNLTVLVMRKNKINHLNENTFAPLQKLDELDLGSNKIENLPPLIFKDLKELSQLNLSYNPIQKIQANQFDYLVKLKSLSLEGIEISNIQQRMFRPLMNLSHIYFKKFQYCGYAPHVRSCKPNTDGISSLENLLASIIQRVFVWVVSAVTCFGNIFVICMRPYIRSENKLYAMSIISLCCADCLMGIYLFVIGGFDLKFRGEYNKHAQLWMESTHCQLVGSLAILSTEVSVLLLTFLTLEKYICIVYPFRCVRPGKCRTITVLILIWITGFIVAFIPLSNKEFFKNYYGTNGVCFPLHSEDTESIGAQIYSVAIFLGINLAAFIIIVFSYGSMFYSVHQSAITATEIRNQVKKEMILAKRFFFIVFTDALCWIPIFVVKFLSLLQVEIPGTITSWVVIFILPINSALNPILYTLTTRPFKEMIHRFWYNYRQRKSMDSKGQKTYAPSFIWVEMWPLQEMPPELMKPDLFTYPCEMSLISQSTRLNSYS
Conditions: CHO, time 2.0 hrs

fpEC50	SMILES
> 7.7	CC(C)Oc1ccccc1C(=O)Nc1ccccc1C(=O)Nc1cccc(S(=O)(=O)C(F)(F)F)c1
> 10.5	COc1cc(F)c(O[C@H]2CC[C@@](C)(C(=O)O)CC2)cc1C(=O)N[C@@H]1[C@H]2CC[C@H](C2)[C@@H]1C(=O)Nc1ccc(F)c(S(F)(F)(F)(F)F)c1
